These results are taken from patent US20170327577A1, “METHODS OF CONSTRUCTING AMINO TERMINAL IMMUNOGLOBULIN FUSION PROTEINS AND COMPOSITIONS THEREOF” (The California Institute for Biomedical Research, priority 2014, published 2017).

The chains behind the UniProt entries cited, without tags or fusion partners. Residues count along the entry.
UniProt P43220, 24-463 limits assumed: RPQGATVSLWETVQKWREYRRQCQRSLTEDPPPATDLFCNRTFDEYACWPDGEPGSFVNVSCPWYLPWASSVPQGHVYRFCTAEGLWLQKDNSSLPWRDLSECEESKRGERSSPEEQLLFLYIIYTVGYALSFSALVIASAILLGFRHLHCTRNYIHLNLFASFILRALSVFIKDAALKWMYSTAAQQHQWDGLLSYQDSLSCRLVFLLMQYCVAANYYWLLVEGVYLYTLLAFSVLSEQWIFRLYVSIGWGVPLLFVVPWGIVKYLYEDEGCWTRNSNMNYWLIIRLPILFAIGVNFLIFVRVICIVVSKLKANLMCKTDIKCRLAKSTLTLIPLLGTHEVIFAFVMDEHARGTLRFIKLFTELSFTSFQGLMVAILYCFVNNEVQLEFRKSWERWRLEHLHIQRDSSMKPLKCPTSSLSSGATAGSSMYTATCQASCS

Experiment [1] deals with glucagon receptor (UniProt P47871). In words: cell-based or functional assay.
In experiment [2] the target is GLP-1 receptor (UniProt P43220). The experiment can be described thus: cell-based or functional assay.

In the case of “palivizumab(NL, EAAAK)-glucagon(2S) and pPalivizumab(NH, GGGGS1)-exendin-4”, the EC50, CRE-luciferase reporter in HEK293 cells in experiment [1] stood at 0.033 nM; in experiment [2], 0.013 nM.
